molecular target: recombinant human CCR5 receptor (Homo sapiens, UniProt P51681); experiment: in vitro radioligand binding assay: inhibition of iodinated MIP-1α binding to CCR5 membranes (scintillation proximity); settings: displacement of 0.1 nM iodinated MIP-1α; membranes from Chinese hamster ovary cells expressing recombinant human CCR5; average if tested more than once
Protocol: The ability of compounds to inhibit the binding of MIP-1α was assessed by an in vitro radioligand binding assay. Membranes were prepared from Chinese hamster ovary cells which expressed the recombinant human CCR5 receptor. These membranes were incubated with 0.1 nM iodinated MIP-1α, scintillation proximity beads and various concentrations of the compounds of the invention in 96-well plates. The amount of iodinated MIP-1α bound to the receptor was determined by scintillation counting. Competition curves were obtained for compounds and the concentration of compound which displaced 50% of bound iodinated MIP-1α was calculated (IC50).
In Table VI the results are presented as Pic50 values. A Pic50 value is the negative log (to base 10) of the IC50 result, so an IC50 of 1 μM (that is 1×10^−6M) gives a Pic50 of 6. If a compound was tested more than once then the data below is an average of the probative tests results.

Protein sequences, listed by entry. Tags and fused reporters are not part of them.
UniProt P51681, whole entry: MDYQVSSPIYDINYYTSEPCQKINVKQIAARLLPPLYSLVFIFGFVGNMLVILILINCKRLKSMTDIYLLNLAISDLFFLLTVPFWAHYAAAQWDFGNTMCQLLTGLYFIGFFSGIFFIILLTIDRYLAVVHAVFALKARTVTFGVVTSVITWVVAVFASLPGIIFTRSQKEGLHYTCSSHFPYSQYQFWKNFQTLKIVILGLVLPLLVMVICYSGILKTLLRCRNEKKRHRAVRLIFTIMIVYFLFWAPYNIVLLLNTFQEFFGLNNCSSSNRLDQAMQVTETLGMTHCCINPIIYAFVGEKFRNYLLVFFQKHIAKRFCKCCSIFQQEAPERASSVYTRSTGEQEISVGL

| Structure (SMILES) | Pic50 |
| --- | --- |
| CS(=O)(=O)c1ccc(S(=O)(=O)NCC2CCN(CC[C@@H](c3cc(F)cc(F)c3)C3CCN(S(C)(=O)=O)CC3)CC2)cc1 | 9.3 |
| CS(=O)(=O)c1ccc([C@@H](CCN2CCC(CNS(=O)(=O)c3ccccc3F)CC2)c2cc(F)cc(F)c2)cc1 | 6.8 |
| COc1ccc(S(=O)(=O)NCC2CCN(CC[C@@H](c3cc(F)cc(F)c3)C3CCN(S(C)(=O)=O)CC3)CC2)cc1OC | 8.3 |
| CS(=O)(=O)c1ccc([C@@H](CCN2CCC(CNS(=O)(=O)c3ccc(Cl)cc3)CC2)c2cc(F)cc(F)c2)cc1 | 7.7 |
| CS(=O)(=O)c1ccc([C@@H](CCN2CCC(CNS(=O)(=O)c3ccc(C#N)cc3)CC2)c2cc(F)cc(F)c2)cc1 | 8.0 |
| CS(=O)(=O)c1ccc([C@@H](CCN2CCC(CCNS(=O)(=O)c3ccc(S(C)(=O)=O)cc3)CC2)c2cc(F)cc(F)c2)cc1 | 6.8 |

Reference: US20070112022A1, “Piperidine derivatives as ccr5 receptor modulators” (priority 2003, published 2007)
